Measured values taken from PubChem BioAssay (NCI).
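Growth conditions: 96-well plates. Treatment: test compound, 48 hours, 5 concentrations. Analysis: linear interpolation between bracketing concentrations; unreached endpoints set to highest concentration. Here, GI50 denotes the concentration required for 50% inhibition of growth. At the TGI there is no net growth.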

How the values were obtained:
Assay in all cases: DTP human tumour cell line panel, 48 h
786-0 renal = tested on: 786-0 renal
A498 renal = tested on: A498 renal
A549 NSCLC = tested on: A549 NSCLC
ACHN renal = tested on: ACHN renal
BT-549 breast = tested on: BT-549 breast
CAKI-1 renal = tested on: CAKI-1 renal
CCRF-CEM leukemia = tested on: CCRF-CEM leukemia
COLO 205 colon = tested on: COLO 205 colon
DU-145 prostate = tested on: DU-145 prostate
EKVX NSCLC = tested on: EKVX NSCLC
HCC-2998 colon = tested on: HCC-2998 colon
HCT-116 colon = tested on: HCT-116 colon
HCT-15 colon = tested on: HCT-15 colon
HL-60(TB) leukemia = tested on: HL-60(TB) leukemia
HOP-62 NSCLC = tested on: HOP-62 NSCLC
HOP-92 NSCLC = tested on: HOP-92 NSCLC
HS 578T breast = tested on: HS 578T breast
HT29 colon = tested on: HT29 colon
IGROV1 ovarian = tested on: IGROV1 ovarian
K-562 leukemia = tested on: K-562 leukemia
KM12 colon = tested on: KM12 colon
LOX IMVI melanoma = tested on: LOX IMVI melanoma
M14 melanoma = tested on: M14 melanoma
MCF7 breast = tested on: MCF7 breast
MDA-MB-231 breast = tested on: MDA-MB-231 breast
MDA-MB-435 = tested on: MDA-MB-435
MDA-N = tested on: MDA-N
MOLT-4 leukemia = tested on: MOLT-4 leukemia
NCI-H226 lung = tested on: NCI-H226 lung
NCI-H23 lung = tested on: NCI-H23 lung

Compound: CCP1(=O)N(CC(C)(C)C)C(c2ccccc2)CC(c2ccccc2)N1CC(C)(C)C (centres undefined)
- GI50 (786-0 renal): 3.09 µM
- TGI (786-0 renal): 8.28 µM
- GI50 (A498 renal): 2.17 µM
- TGI (A498 renal): 4.89 µM
- GI50 (A549 NSCLC): 1.77 µM
- TGI (A549 NSCLC): 4.2 µM
- GI50 (ACHN renal): 2.46 µM
- TGI (ACHN renal): 6.11 µM
- GI50 (BT-549 breast): 1.8 µM
- TGI (BT-549 breast): 3.23 µM
- GI50 (CAKI-1 renal): 2.23 µM
- TGI (CAKI-1 renal): 7.78 µM
- GI50 (CCRF-CEM leukemia): 2.01 µM
- TGI (CCRF-CEM leukemia): 4.73 µM
- GI50 (COLO 205 colon): 3.11 µM
- TGI (COLO 205 colon): 7.86 µM
- GI50 (DU-145 prostate): 3.46 µM
- TGI (DU-145 prostate): 7.87 µM
- GI50 (EKVX NSCLC): 3.74 µM
- TGI (EKVX NSCLC): 10.2 µM
- GI50 (HCC-2998 colon): 3.68 µM
- TGI (HCC-2998 colon): 9.22 µM
- GI50 (HCT-116 colon): 1.9 µM
- TGI (HCT-116 colon): 4.99 µM
- GI50 (HCT-15 colon): 2.03 µM
- TGI (HCT-15 colon): 4.89 µM
- GI50 (HL-60(TB) leukemia): 1.88 µM
- TGI (HL-60(TB) leukemia): 4.07 µM
- GI50 (HOP-62 NSCLC): 4.24 µM
- TGI (HOP-62 NSCLC): 9.19 µM
- GI50 (HOP-92 NSCLC): 2.74 µM
- TGI (HOP-92 NSCLC): 7.78 µM
- GI50 (HS 578T breast): 2.36 µM
- TGI (HS 578T breast): 7.08 µM
- GI50 (HT29 colon): 2.89 µM
- TGI (HT29 colon): 7.78 µM
- GI50 (IGROV1 ovarian): 1.67 µM
- TGI (IGROV1 ovarian): 3.19 µM
- GI50 (K-562 leukemia): 2.78 µM
- TGI (K-562 leukemia): 21.2 µM
- GI50 (KM12 colon): 1.89 µM
- TGI (KM12 colon): 4.67 µM
- GI50 (LOX IMVI melanoma): 2.39 µM
- TGI (LOX IMVI melanoma): 6.56 µM
- GI50 (M14 melanoma): 2.12 µM
- TGI (M14 melanoma): 4.92 µM
- GI50 (MCF7 breast): 1.92 µM
- TGI (MCF7 breast): 4.59 µM
- GI50 (MDA-MB-231 breast): 1.74 µM
- TGI (MDA-MB-231 breast): 3.42 µM
- GI50 (MDA-MB-435): 2.34 µM
- TGI (MDA-MB-435): 5.89 µM
- GI50 (MDA-N): 3.22 µM
- TGI (MDA-N): 8.05 µM
- GI50 (MOLT-4 leukemia): 2.54 µM
- TGI (MOLT-4 leukemia): 6.61 µM
- GI50 (NCI-H226 lung): 4.26 µM
- TGI (NCI-H226 lung): 10.8 µM
- GI50 (NCI-H23 lung): 1.49 µM
